Consider three compounds from PubChem BioAssay (Tox21).

Chains of the proteins cited; added tags and fusions are not shown.
UniProt P08659, whole entry: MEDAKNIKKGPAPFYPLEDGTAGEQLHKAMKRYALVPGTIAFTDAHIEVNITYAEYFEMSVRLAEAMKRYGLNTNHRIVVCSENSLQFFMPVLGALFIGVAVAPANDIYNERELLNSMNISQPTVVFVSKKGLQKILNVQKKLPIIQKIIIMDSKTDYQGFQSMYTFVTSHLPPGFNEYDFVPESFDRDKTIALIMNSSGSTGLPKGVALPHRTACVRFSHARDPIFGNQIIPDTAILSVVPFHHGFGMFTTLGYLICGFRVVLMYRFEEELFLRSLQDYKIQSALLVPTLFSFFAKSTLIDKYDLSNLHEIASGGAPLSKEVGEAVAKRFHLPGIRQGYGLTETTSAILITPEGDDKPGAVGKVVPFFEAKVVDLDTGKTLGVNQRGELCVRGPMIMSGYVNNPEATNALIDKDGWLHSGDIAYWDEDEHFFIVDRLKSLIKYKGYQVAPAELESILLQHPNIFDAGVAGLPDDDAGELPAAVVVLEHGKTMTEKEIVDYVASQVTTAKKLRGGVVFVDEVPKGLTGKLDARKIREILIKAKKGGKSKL
UniProt P16473, whole entry: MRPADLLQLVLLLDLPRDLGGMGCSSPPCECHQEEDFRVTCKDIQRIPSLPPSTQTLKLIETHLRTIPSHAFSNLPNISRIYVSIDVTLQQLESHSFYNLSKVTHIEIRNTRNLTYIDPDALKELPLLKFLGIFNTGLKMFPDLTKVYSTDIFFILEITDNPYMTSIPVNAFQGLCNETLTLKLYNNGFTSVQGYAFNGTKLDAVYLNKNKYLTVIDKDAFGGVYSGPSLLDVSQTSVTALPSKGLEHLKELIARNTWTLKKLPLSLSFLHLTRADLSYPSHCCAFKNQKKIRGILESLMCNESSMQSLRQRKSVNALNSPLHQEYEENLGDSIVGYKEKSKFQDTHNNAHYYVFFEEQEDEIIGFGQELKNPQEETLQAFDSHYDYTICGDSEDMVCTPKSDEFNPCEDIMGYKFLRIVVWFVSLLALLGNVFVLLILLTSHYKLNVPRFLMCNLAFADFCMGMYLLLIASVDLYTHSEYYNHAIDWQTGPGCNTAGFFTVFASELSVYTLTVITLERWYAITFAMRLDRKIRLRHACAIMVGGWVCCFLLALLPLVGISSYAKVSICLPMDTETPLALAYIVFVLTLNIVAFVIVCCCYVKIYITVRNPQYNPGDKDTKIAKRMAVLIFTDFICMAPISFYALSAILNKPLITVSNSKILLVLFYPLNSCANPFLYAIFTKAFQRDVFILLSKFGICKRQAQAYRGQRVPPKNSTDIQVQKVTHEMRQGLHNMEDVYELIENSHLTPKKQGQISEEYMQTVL
UniProt Q14994, whole entry: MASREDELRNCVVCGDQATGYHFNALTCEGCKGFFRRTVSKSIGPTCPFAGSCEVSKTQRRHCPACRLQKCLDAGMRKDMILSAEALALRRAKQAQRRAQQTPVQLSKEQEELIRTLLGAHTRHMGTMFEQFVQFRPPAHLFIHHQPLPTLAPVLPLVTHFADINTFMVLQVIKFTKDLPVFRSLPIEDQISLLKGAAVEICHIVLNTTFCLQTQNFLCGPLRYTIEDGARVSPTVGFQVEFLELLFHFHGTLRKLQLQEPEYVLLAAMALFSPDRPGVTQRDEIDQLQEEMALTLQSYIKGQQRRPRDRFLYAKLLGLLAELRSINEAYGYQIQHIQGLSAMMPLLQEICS

Where “and” joins values, the source holds several entries; their conditions need not be identical. Equal entries are not always repeated. The entries are a selection whose mix differs from that of the whole data set. Inconclusive results are not listed. The source holds several records for some structures; these can differ, active in one and inactive in another. Calls of active or inactive are those of the source. Unless noted, calls come from the whole dose curve; as a rule, active = well fitted curve in the direction sought with a large enough effect in the repeat runs; inconclusive = weak or mixed curves; inactive = no such curve, though single readings can be large; an effect the other way counts as inactive or inconclusive.

The nature of assay [1]: qHTS assay to identify small molecule antagonists of the estrogen related receptor (ERR) signaling pathway from Tox21 library - cell viability counter screen (AID 1224834). Note: nearly all actives have a fitted effect of over 30% in size. The conditions noted are these: ERR reporter cells viability, CellTiter-Fluor, 17.5 h; at 92.4 µM (top of the series). Put shortly: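 ERR reporter cells were plated 6 h before compound addition, then exposed to test compounds in DMSO for 17.5 h at 37 C. Viability was read as CellTiter-Fluor fluorescence after a 30-minute incubation at 37 C.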

The target of assay [2] is Luciferin 4-monooxygenase (Photinus pyralis) (UniProt P08659). The assay is described as follows: qHTS assay to identify small molecule inhibitors of firefly luciferase (AID 1224835). Note: nearly all actives have a fitted effect of over 25% in size. Note: potency is the fitted concentration of half-maximal effect. Put shortly:
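Biochemical qHTS: compounds run as interplate titrations against purified firefly enzyme, with D-luciferin and ATP each at its KM concentration. Light output recorded by CCD imaging.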
In general terms: In qHTS, concentration-response curves come from the screen itself.

Assay [3] in a line: qHTS assay to identify small molecule agonists of the constitutive androstane receptor (CAR) signaling pathway - cell viability counter screen (AID 1224836). Note: nearly all actives have a fitted effect of over 45% in size. The conditions noted are these: HepG2-CYP2B6-hCAR viability, CellTiter-Fluor, 23 h; at 92.4 µM (top of the series); PK11195 added to every well. Put shortly:
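Double-stable HepG2 hepatoma cells (hCAR plus CYP2B6-2.2kb) are treated for 23 h at 37 C with test compounds in 15-point concentration series. PK11195 at 0.75 uM final is co-added. Cell viability is quantified by CellTiter-Fluor.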

The nature of assay [4]: qHTS assay to identify small molecule antagonists of the constitutive androstane receptor (CAR) signaling pathway - cell viability counter screen (AID 1224837). Note: nearly all actives have a fitted effect of over 45% in size. To be noted: HepG2-CYP2B6-hCAR viability, CellTiter-Fluor, 23 h, co-treated with 50 nM CITCO; at 92.4 µM (top of the series) unless noted. The method in brief: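 HepG2 cells stably expressing hCAR and a CYP2B6-2.2kb reporter were plated and pre-incubated 4 hr at 37 C/5% CO2, then given compounds at 15 concentrations plus 50 nM CITCO (final). After 23 hr, viability was read by CellTiter-Fluor fluorescence.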

Assay [5] is described as follows: qHTS assay to identify small molecule antagonists of the estrogen related receptor signaling pathway with the pleiotropic PPARgamma coactivator (PGC) from Tox21 10K library - cell viability counter screen (AID 1224840; active = well fitted cell-killing curve with a large enough effect in the repeat runs, not every such curve was filed as active; note: nearly all actives have a fitted effect of over 40% in size). The conditions noted are these: PGC/ERR reporter cells viability, CellTiter-Fluor, 17.5 h; at 92.4 µM (top of the series). Put shortly: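 PGC/ERR cells were seeded at 2,000 cells/well and left 6 hours at 37 C/5% CO2 before pin-tool addition of compounds in DMSO. After 17.5 hours at 37 C, CellTiter-Fluor was added and fluorescence read 30 minutes later.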

The nature of assay [6]: qHTS assay to identify small molecule agonists of the estrogen related receptor signaling pathway with the pleiotropic PPARgamma coactivator (PGC) from Tox21 10K library (AID 1224842). Note: nearly all actives have a fitted effect of over 15% in size. The conditions noted are these: PGC/ERR reporter cell line, luciferase ONE-Glo, 18 h; at 92.4 µM (top of the series). Put shortly: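 PGC/ERR reporter cell line, 2,000 cells per well, incubated 6 h at 37 C before 23 nL compound in DMSO was added. After 18 h at 37 C, One-Glo luminescence read following 30 min at room temperature.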

Assay [7] concerns the target Thyrotropin receptor (Homo sapiens) (UniProt P16473). The assay is described as follows: qHTS assay to identify small molecule agonists of the thyroid stimulating hormone receptor (TSHR) signaling pathway (AID 1224843; calls by dose curve; note: nearly all actives have a fitted effect of over 45% in size). The conditions noted are these: TSHR-HEK293 cells, cAMP HTRF, agonist mode, 30 min; at 92.4 µM (top of the series).
A short description of assay [8]: qHTS assay to identify small molecule agonists of the hypoxia (HIF-1) signaling pathway - cell viability counter screen (AID 1224844; calls by dose curve; note: nearly all actives have a fitted effect of over 50% in size). The conditions noted are these: HRE-bla ME-180 viability, CellTiter-Glo luminescence, 17 h; at 76.8 µM (top of the series) unless noted. The method in brief: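 HRE-bla ME-180 cells in medium with 0.5% dialyzed FBS were preincubated 5 hrs at 37C, exposed to compounds for 17 hrs, then viability was read as CellTiter-Glo luminescence after 30 min at room temperature, in the reporter wells.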

A short description of assay [9]: qHTS assay to identify small molecule agonists of the hypoxia (HIF-1) signaling pathway (AID 1224846; active = well fitted activation curve with a large enough effect in the signal ratio in the repeat runs, not every such curve was filed as active; the % refers to the signal ratio). To be noted: HRE-bla ME-180 cells, beta-lactamase ratio, 17 h; at 76.8 µM (top of the series). The method in brief: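 HRE-bla ME-180 cells (beta-lactamase reporter under hypoxia response element) were plated at 2,000 cells/well in medium with 0.5% dialyzed FBS, rested 5 hrs, then given compounds in DMSO for 17 hrs at 37C, 5% CO2. Reporter induction was read with CCF4-AM FRET substrate.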

Assay [10] can be described thus: qHTS assay to identify small molecule agonists of H2AX - cell viability counter screen (AID 1224847; calls by dose curve;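 note: wild-type CHO-K1 cells; top concentration of the series differs between compounds; nearly all actives have a fitted effect of over 30% in size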). To be noted: CHO-K1 viability, CellTiter-Glo luminescence, 3 h; at 154 µM (top of the series) unless noted. Put shortly:
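For this counter screen, overnight-attached CHO-K1 cells received test compounds (15 concentrations, 0.76% DMSO final); 3 hr later at 37C, CellTiter-Glo reagent was added and luminescence recorded after 30 min at room temperature.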

Assay [11] can be described thus: qHTS assay to identify small molecule antagonists of the estrogen related receptor (ERR) signaling pathway from Tox21 library (AID 1224848). Note: nearly all actives have a fitted effect of over 50% in size. Note: potency is the fitted concentration of half-maximal effect. Put shortly:
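Luminescent reporter read-out (ONE-Glo) from NTP's ERR cell line after 18 h treatment at 37 C with DMSO-dissolved Tox21 compounds; cells pre-plated 6 h beforehand at 2,000 per well.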

A short description of assay [12]: qHTS assay to identify small molecule agonists of the estrogen related receptor (ERR) signaling pathway from Tox21 library (AID 1224849; calls by dose curve; note: nearly all actives have a fitted effect of over 15% in size). The conditions noted are these: ERR reporter cell line, ONE-Glo luciferase, 18 h; at 92.4 µM (top of the series). The method in brief:
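ERR reporter cell line (NTP) seeded, rested 6 h at 37 C/5% CO2, then pinned with Tox21 compounds in DMSO. After 18 h at 37 C, ONE-Glo luciferase luminescence was read following 30 min at room temperature.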

Assay [13] in a line: qHTS RealTime-Glo MT Cell Viability Assay in HEK293 cells - 32 hour (AID 1224868). Note: top concentration of the series differs between compounds; nearly all actives have a fitted effect of over 50% in size. The conditions noted are these: RealTime-Glo luminescence, at 76.8 µM (top of the series). The method in brief: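 Viability tracked continuously by luminescence as live cells reduce a prosubstrate for NanoLuc; HEK293 cells preincubated 5 h, compound-treated at 37 C, and read at 0, 8, 16, 24, 32 and 40 h.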

Assay [14] is described as follows: A CellTox Green Cytotoxicity Assay to monitor cytotoxicity in HEK293 cells - 0 hour (AID 1224869). Note: nearly all actives have a fitted effect of over 50% in size. Note: potency is the fitted concentration of half-maximal effect. Put shortly: (§1)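 HEK293 cells premixed with CellTox Green dye were seeded at 600 cells/well and left 5 h at 37 C/5% CO2 before pin transfer of 23 nL compound in DMSO. Fluorescence from dye bound to dead-cell DNA was read during 40 h treatment.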
The nature of assay [15]: qHTS RealTime-Glo MT Cell Viability Assay in HepG2 cells - 8 hour (AID 1224873). Note: nearly all actives have a fitted effect of over 55% in size. To be noted: RealTime-Glo luminescence; at 76.8 µM (top of the series) unless noted. The method in brief: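 HepG2 cells (600/well) mixed with RealTime-Glo MT reagent, settled 5 h at 37 C/5% CO2 before compound addition. Nonlytic NanoLuc luminescence from viable-cell prosubstrate reduction read repeatedly during 40 h treatment at 37 C.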

A short description of assay [16]: A CellTox Green Cytotoxicity Assay to monitor cytotoxicity in HEK293 cells - 24 hour (AID 1224875). Note: nearly all actives have a fitted effect of over 45% in size. Note: potency is the fitted concentration of half-maximal effect. Put shortly: as §1
A short description of assay [17]: qHTS assay to identify small molecule antagonists of the estrogen related receptor signaling pathway with the pleiotropic PPARgamma coactivator (PGC) from Tox21 10K library (AID 1224841; call rule not given here).
Assay [18] can be described thus: qHTS RealTime-Glo MT Cell Viability Assay in HepG2 cells - 24 hour (AID 1224867). Note: nearly all actives have a fitted effect of over 50% in size. To be noted: RealTime-Glo luminescence, at 76.8 µM (top of the series). Put shortly: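 Viability was tracked continuously by NanoLuc luminescence from prosubstrate reduced by living HepG2 cells, at successive time points over 40 h of compound exposure. Cells with reagent were preincubated 5 h at 37 °C before compound addition.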

For assay [19], the target named is Nuclear receptor subfamily 1 group I member 3 (Homo sapiens) (UniProt Q14994). The assay is described as follows: qHTS assay to identify small molecule antagonists of the constitutive androstane receptor (CAR) signaling pathway (AID 1224838). Note: nearly all actives have a fitted effect of over 40% in size. The conditions noted are these: HepG2-CYP2B6-hCAR luciferase, CITCO-stimulated, 24 h; at 92.4 µM (top of the series).
% is set by controls: 0 for no effect and ±100 for the full control effect.

Consider `CC(C)OP(C)(=O)OC(C)C`, for which the viability change, negative = cytotoxic was inactive: 1.55% in assay [1]; inactive: 0.941% and inactive: 1.02% in assay [3]; inactive: -1.3% in assay [5]; inactive: -3.57% and inactive: 1.64% in assay [15]. The Potency in assay [2] was active: 63.3 µM and inactive; in [11], active: 24.3 µM and inactive. Further, the activity change, negative = cytotoxicity was inactive: 0.447% and inactive: 1.19% in assay [4]; inactive: 8.06% and inactive: 0.459% in assay [8]; inactive: 2.13% and inactive: 4.01% in assay [10]. For the same compound, the activation is inactive: -22.1% and inactive: 5.95% in assay [6]; inactive: -0.569% and inactive: -2.85% in assay [7]; inactive: -0.56% and inactive: -0.818% in assay [9]. Further, the activity change, positive = activation in assay [12] is inactive: -54.3% and inactive: 7.28%. Also, in [13], the activity change, negative = cytotoxic was inactive: 16.9%. Further, the Potency entry in assay [14] and in assay [16] was “inactive” in each case.

On to `Cc1c([N+](=O)[O-])cccc1[N+](=O)[O-]`, for which the viability change, negative = cytotoxic in assay [1] is inactive: 3.89% and inactive: 0.537%; in assay [3] it was inactive: 2.41% and inactive: -0.915%; in assay [5] it was inactive: 0.736% and inactive: 5.27%; in assay [15], inactive: 2.67% and inactive: 2.76%. Further, the Potency result in assay [2], in assay [17], in [11], in assay [14] and in assay [16] was “inactive” each time. For the same compound, the activity change, negative = cytotoxicity was inactive: 4.25% and inactive: -2.54% in assay [4]; inactive: 2.65% and inactive: 8.15% in assay [8]; inactive: -6.38% and inactive: 0.184% in assay [10]; inactive: 0.654% and inactive: 0.744% in assay [18]. In addition, the activation in [6] was inactive: -1.83% and inactive: -1.52%; in [7], inactive: -1.1%; in assay [9], inactive: 0.374% and inactive: -0.938%. In addition, the activity change, positive = activation in [12] is inactive: -0.169% and inactive: 1.48%.

`O=[N+]([O-])c1cccc([N+](=O)[O-])c1`: the viability change, negative = cytotoxic was inactive: 6.81% in assay [1], inactive: -0.199% in assay [3], inactive: 4.17% in [5] and inactive: -0.989% in assay [15]. Also, the Potency entry in assay [2], in assay [17] and in assay [11] was “inactive” throughout. The activity change, negative = cytotoxicity in assay [4] is inactive: -6.05%; in [10] it was inactive: 0.597%; in [18] it was inactive: 4.39%. The activity, negative = inhibition in [19] is inactive: 56.1%. Further, the activation in assay [6] is inactive: 0.924%. The Potency in assay [14] and in assay [16] was active: 45.5 µM each time.
